We go through 16 compounds from patent US10752596B2, “Nitrogen-containing heteroaryl compound and pharmaceutical use thereof” (JAPAN TOBACCO INC., priority 2017, dated 2020).

Protein sequences, listed by entry. Tags and fused reporters are not part of them. Chains listed by the source or under a name are the forms on record and can include a tag or linker.
UniProt Q9NRM0, other isoform, or with tags, fused parts or gaps: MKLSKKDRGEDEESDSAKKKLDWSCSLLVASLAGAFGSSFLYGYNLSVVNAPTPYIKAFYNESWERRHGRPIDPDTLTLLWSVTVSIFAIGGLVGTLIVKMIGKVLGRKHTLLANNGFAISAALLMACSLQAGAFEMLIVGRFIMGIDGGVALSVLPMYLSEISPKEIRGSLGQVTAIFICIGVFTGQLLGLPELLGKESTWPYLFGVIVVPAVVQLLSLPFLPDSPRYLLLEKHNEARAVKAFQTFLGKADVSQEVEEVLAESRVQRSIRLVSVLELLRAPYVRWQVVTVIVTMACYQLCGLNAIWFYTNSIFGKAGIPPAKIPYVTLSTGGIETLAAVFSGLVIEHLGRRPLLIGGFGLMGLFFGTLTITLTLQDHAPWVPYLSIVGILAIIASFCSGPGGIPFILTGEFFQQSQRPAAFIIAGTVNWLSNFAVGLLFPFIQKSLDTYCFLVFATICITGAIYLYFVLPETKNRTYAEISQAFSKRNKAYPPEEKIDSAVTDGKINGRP

The first assay deals with human GLUT9 (Homo sapiens (Human), UniProt Q9NRM0). Briefly: Evaluation of human GLUT9 inhibitory activity ([14C] uric acid uptake in human GLUT9 expressing HEK293T cells transduced with Uricase/Hyper). The assay is classed as cell-based. The conditions noted are these: HEK-293T, 10 μM compound, human GLUT9 stably expressing HEK293T cells, read-out: GLUT9 inhibitory rate at 10 μM of compound. As to the method:
A method for measuring GLUT9 inhibitory activity using human GLUT9 expressing cells transduced with Uricase/Hyper is shown hereinafter. GLUT9 inhibitory activity ([…]) of the test compound was calculated based on the intracellular uptake amount of labeled uric acid ([^14C] uric acid) transported by GLUT9.
1. Preparation of Human GLUT9 Expression Plasmid
Human GLUT9S coding region (NM_001001290.1) was amplified by PCR method using PrimeSTAR MAX DNA Polymerase (Takara Bio). The obtained PCR product was subjected to agarose gel electrophoresis, and the desired size of PCR product was purified by QIAquick Gel Extraction Kit (QIAGEN). Next, pEBMulti-Bsd vector (Wako Pure Chemical Industries, Ltd.) was subjected to digestion using restriction enzymes SalI and EcoR V, and linked to the PCR product containing GLUT9S by In-Fusion reaction using In-Fusion HD Cloning Kit (Takara Bio). XL10-Gold Competent Cells (Agilent Technologies) were transformed in In-Fusion reaction solution, and the obtained transfectants were cultured with shaking overnight in LB medium to which Blasticidin S HCl (Thermo Fisher Scientific) was added. Human GLUT9 expression plasmid DNA was prepared from the collected transfectants using EndoFree Plasmid Kit (Takara Bio).
2. Establish of Human GLUT9 Stably Expressing Cell
HEK293T cells (American Type Culture Collection, DS Pharma Biomedical) were seeded in a 6 well plate at 1×10^6 cells/well. Next day, human GLUT9 expression plasmid was transfected by using Lipofectamine 3000 Reagent (Thermo Fisher Scientific) as follows. Lipofectamine 3000 Reagent (5 μL) was diluted with Opti-MEM (125 μL, Thermo Fisher Scientific). Separately, plasmid DNA (2.5 μg) was diluted with Opti-MEM (125 μL), and P3000 Reagent (5 μL) was added thereto. The obtained solution was mixed with the previously obtained diluted solution, and the mixture was left stand at room temperature for 5 min, and added to the cells. Next day, the transfected cells were diluted and reseeded in a 6 well plate at 4×10^5 cells/well, and drug selection was performed in the presence of 30 μg/mL of Blasticidin S HCl, and thereby, Blasticidin-resistant human GLUT9 stably expressing cell line was established. Mock cells were prepared by introducing pEBMulti-Bsd vector into HEK293T cells in a similar manner.
3. Preparation of Uricase/Hyper Expression Plasmid
Uricase/Hyper expression plasmid was prepared by linking the coding regions of Aspergillus Flavus-derived uricase gene and pHyPer-Cyto vector (Evrogen) HyPer gene to the pEBMulti-Hyg vector (Wako Pure Chemical Industries, Ltd.) and then introducing it. The preparation method was performed by reference to Gout and Nucleic Acid Metabolism 2013, 37(2), 93-101, and seven repeated linker sequence of glycine-glycine-glycine-serine was prepared herein.
4. Preparation of Human GLUT9-Uricase/Hyper Coexpressing Cell
Human GLUT9 stably expressing cells were seeded at 3.6×10^7 cells per 225 cm^2 flask. Next day, Uricase/Hyper expression plasmid was transfected by using Lipofectamine 3000 Reagent as follows. Lipofectamine 3000 Reagent (40 μL) was diluted with Opti-MEM (750 μL). Separately, plasmid DNA (20 μg) was diluted with Opti-MEM (750 μL), and P3000 Reagent (40 μL) was added thereto. The obtained solution was mixed with the previously obtained diluted solution, and the mixture was left stand at room temperature for 5 min, and added to the cells. Next day, transfected cells were collected to prepare human GLUT9-Uricase/Hyper coexpressing cells.
5. Evaluation of GLUT9 Inhibitory Activity
Uricase/Hyper transiently-transfected human GLUT9 stably expressing cells or mock cells (blank) were seeded in a 96 well plate (Corning) at 1.6×10^5 cells/well, and cultured overnight at 37° C., 5% CO2. D-MEM/high glucose (Wako Pure Chemical Industries, Ltd.) containing 10% Fetal Bovine Serum (Lifetechnology) and 100 units/ml penicillin/100 μg/ml streptomycin (GIBCO) was used as a medium. […]
As for `COc1ccc(-c2ncc([C@H]3CC[C@H](OC)CC3)cc2-c2ccc(C(=O)O)cc2)cc1` [Example 54], the inhibition at 10 µM is 43%.

The same assay, now with this note: final 300 μM uric acid, 6 min, human GLUT9 stably expressing HEK293T cells, read-out: humans GLUT9 inhibitory activity (IC50 value (μM)).
Usually IC50 stands for the concentration that inhibits the measured activity by half. `CCCCc1cnc(-c2ccc(OC)cc2)c(-c2ccc(C(=O)O)cc2C)n1` [Example 4]: the IC50 was 0.612 µM.
With `CCCCc1cnc(-c2ccc(C(F)(F)F)cc2)c(-c2ccc(C(=O)O)cc2)n1` [Example 13], the half-inhibitory concentration (IC50) was determined as 0.219 µM.
Regarding `CCCCc1cnc(-c2ccc(C(F)(F)F)c(Cl)c2)c(-c2ccc(C(=O)O)cc2)n1` [Example 27], the 50% inhibitory concentration (IC50) was found to be 0.255 µM.
Regarding `COc1ccc(-c2ncc(C3CCCCC3)cc2-c2ccc(C(=O)O)cc2)cc1` [Example 46], the IC50 amounted to 2.75 µM.
Same read-out and setting: the figure for `COc1ccc(-c2ncc([C@H]3CC[C@@H](OC)CC3)cc2-c2ccc(C(=O)O)cc2)cc1` [Example 53] is 0.46 µM; for `COCCCc1cnc(-c2cc(F)c(OC)c(F)c2)c(-c2ccc(C(=O)O)cc2)n1` [Example 67, 4-(3-(3,5-difluoro-4-methoxyphenyl)-6-(3-methoxypropyl)pyrazin-2-yl)benzoic Acid] it is 0.102 µM; for `CCCCc1cnc(-c2ccc(OCC)cc2)c(-c2ccc(C(=O)O)cc2)n1` [Example 82] it is 0.245 µM.
On to `COc1ccc(-c2ncc(CCC(C)C)cc2-c2ccc(C(=O)O)cc2)cc1` [Example 85], for which the 50% inhibitory concentration (IC50) turned out to be 0.853 µM.
The same measure, in the same setting: then `CCCCc1cnc(-c2ccc(OC(F)F)cc2)c(-c2ccc(C(=O)O)cc2)n1` [Example 90], with 0.14 µM; and `COc1ccc(-c2ncc(CCCOCC(F)(F)F)cc2-c2ccc(C(=O)O)cc2)cc1` [Example 104], with 0.139 µM; and `COCCCc1cnc(-c2cc(F)c(OC)c(F)c2)c(-c2ccc(C(=O)O)c(Cl)c2)c1` [Example 122], with 0.258 µM.
In the case of `COCCCc1cnc(-c2cc(F)c(OC)c(F)c2)c(-c2ccc(C(=O)O)c(O)c2)c1` [Example 124], the 50% inhibitory concentration (IC50) is 0.183 µM.
In the case of `CCOCCc1cnc(-c2cc(F)c(OC)c(F)c2)c(-c2ccc(CCC(=O)O)cc2)c1` [Example 128], the half-maximal inhibitory concentration (IC50) is 0.0732 µM.
Turning to `CCCOCc1cnc(-c2ccc(OC)cc2)c(-c2ccc(CCC(=O)O)cc2)c1` [Example 144], the IC50 came out at 0.327 µM.
For `CCCOCc1cnc(-c2cc(F)c(OC)c(F)c2)c(-c2ccc(C(=O)O)cc2)c1` [Example 145], the half-inhibitory concentration (IC50) is 0.106 µM.
